Only a part is listed here, and it is no random draw. Active and inactive are the calls of the source.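 Rule for the calls: active = binding more than 3 SD below its plate's average and above zero; inconclusive = below that plate limit but binding exactly zero; inactive = the rest.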
What follows are compounds tested against Desmoglein-3 (Homo sapiens) (UniProt P32926) (assay: blockers of anti-DSG3 scFv binding – biochemical, bead-based, flow cytometry, scFv-GFP, primary screen (AID 588358;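 note: hits lower antibody fragment binding to DSG3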)). Conditions: DSG3-coupled beads, at 10 µM, stronger effect = lower value.

By UniProt entry, the sequences of proteins in these tests, tags left out.
UniProt P32926, whole entry, looked up: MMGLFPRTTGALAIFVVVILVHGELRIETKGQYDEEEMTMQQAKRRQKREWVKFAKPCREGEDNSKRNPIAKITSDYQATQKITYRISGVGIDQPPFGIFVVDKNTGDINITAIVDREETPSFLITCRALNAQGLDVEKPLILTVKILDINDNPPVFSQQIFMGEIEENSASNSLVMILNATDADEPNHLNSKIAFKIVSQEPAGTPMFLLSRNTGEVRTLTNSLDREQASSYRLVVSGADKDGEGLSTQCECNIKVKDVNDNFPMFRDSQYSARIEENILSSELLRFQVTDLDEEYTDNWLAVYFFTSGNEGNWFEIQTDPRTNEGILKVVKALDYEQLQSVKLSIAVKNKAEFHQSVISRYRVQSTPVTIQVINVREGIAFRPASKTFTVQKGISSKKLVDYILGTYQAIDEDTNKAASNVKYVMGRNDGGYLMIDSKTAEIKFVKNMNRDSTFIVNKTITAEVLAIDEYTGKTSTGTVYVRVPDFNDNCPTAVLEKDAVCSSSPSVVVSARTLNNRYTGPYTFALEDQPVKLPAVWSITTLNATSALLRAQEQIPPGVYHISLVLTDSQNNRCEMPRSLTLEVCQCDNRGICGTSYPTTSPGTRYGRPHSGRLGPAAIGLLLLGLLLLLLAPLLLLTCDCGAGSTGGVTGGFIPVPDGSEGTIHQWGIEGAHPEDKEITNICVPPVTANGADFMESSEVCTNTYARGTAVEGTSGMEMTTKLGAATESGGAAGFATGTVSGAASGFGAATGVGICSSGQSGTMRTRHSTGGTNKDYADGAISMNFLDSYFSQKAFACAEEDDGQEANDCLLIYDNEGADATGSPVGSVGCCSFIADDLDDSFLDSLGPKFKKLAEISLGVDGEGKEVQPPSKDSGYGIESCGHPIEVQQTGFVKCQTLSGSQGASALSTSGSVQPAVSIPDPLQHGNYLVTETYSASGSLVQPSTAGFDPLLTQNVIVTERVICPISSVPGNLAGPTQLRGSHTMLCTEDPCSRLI

Row | Compound | binding (percent of control)
1 | CCC(=O)N(c1ccccc1)C1(COC)CCN(CCc2cccs2)CC1 | inactive: 103%
2 | CCC(=O)N(c1ccccc1)C1(COC)CCN(CCn2nnn(CC)c2=O)CC1 | inactive: 95.3%

From PubChem BioAssay AID588358 (NMMLSC, 2011)
